This is an account of results in patent US10196363B2, “Dihydropyrimidin-2-one compounds and medical use thereof” (JAPAN TOBACCO INC., priority 2014, dated 2019).

By UniProt entry, the sequences of proteins in these tests, tags left out. Residues count along the entry.
UniProt P51450, 251-516 limits assumed: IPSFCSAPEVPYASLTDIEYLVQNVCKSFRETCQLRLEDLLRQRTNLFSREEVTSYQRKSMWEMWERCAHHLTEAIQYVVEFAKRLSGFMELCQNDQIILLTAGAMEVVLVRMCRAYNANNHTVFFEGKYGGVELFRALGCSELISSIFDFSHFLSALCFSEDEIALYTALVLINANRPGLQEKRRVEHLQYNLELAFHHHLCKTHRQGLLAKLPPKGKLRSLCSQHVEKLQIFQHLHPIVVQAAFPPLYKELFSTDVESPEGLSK
UniProt P51449, 253-518 limits assumed: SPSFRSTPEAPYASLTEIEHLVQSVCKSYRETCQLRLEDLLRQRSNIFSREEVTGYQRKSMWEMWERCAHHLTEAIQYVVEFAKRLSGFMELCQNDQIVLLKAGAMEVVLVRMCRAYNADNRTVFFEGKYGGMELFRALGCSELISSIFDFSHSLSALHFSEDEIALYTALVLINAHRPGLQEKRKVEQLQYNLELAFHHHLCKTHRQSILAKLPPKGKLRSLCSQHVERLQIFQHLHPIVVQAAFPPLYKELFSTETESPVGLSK

One assay deals with mouse RORγ (Mus musculus, UniProt P51450). Kind of assay: In vitro assay of inhibitory effect against RORγ transcriptional activity (GAL4-mRORγ LBD luciferase reporter gene assay in CHO cells). As to conditions: read-out: LUC EC50 mRORγ. The procedure:
(§1) In Vitro Assay of Inhibitory Effect Against RORγ Transcriptional Activity
(§2) Inhibitory effect of a test article on transcriptional activity of RORγ was measured by means of the following reporter gene assay.
(§3) cDNA encoding human and mouse RORγ ligand binding domain (LBD) were obtained based on the sequences of human RORγ (Genebank registered number NM_005060.3) and mouse RORγ (Genebank registered number NM_011281.2) (LBD sequence: human RORγ, from Ser253 to Lys518; mouse RORγ, from Ile251 to Lys516).
(§4) The LBD cDNA of human or mouse RORγ was inserted into pFA-CMV vector (Strategene), which expresses GAL4-DNA binding domain fusion protein. The resulting plasmids are hereinafter referred to as GAL4-hRORγ plasmid and GAL4-mRORγ plasmid, respectively.
(§5) GAL4-hRORγ plasmid or GAL4-mRORγ plasmid was transiently co-transfected into Chinese hamster ovary cells (CHO cells) with pG5-Luc (Promega), a reporter plasmid expressing firefly luciferase depending on GAL4.
(§6) TransIT (Registered trademark) CHO transfection reagent (Mirus) was used to co-transfect GAL4-hRORγ plasmid or GAL4-mRORγ plasmid into CHO cells with pG5-Luc plasmid. One day before the assay, CHO cells were suspended in HAM F-12 Nutrient medium containing 10 v/v % fetal bovine serum and seeded at 6×10^6 cells per 175 cm^2 cell culture flask. […]
(§7) RORγ transcriptional activity was detected as the intracellular luciferase activity using SteadyLite HTS Reporter Gene Assay System (Perkin Elmer). […] After the incubation at room temperature for 10 minutes, luminescence of each well was measured by a microplate reader. The luciferase activity derived from the luminescence count in the vehicle-control well treated with 0.2% DMSO alone was defined as 100%, and the luciferase activity in the test article was calculated as a percentage (%-of-control) based on the value of the vehicle-control. EC50 value of test article was calculated by curve fitting with GraphPad Prism. […]

The target of another assay is human RORγ (Homo sapiens, UniProt P51449). Put plainly: In vitro assay of inhibitory effect against RORγ transcriptional activity (GAL4-hRORγ LBD luciferase reporter gene assay in CHO cells). The following applies: read-out: LUC EC50 hRORγ. The procedure:
as §1, §2, §3, §4, §5, §6, §7
(A reporter such as luciferase makes a cellular process visible.)

Setting [1] is: GAL4-mRORγ LBD luciferase reporter, CHO cells.
The mark [2] stands for this setting: GAL4-hRORγ LBD luciferase reporter, CHO cells.

Where two headings read alike, the source gives them in different places.

`CC(C)C1=CN(C23C4C5C2C2C3C4C52C(=O)O)C(=O)N[C@@]1(C)c1ccc(CCC(C)(C)C)c(C(F)(F)F)c1` (stereo partly drawn): the EC50 at mouse RORγ (setting [1]) stood at 36 nM; on human RORγ (setting [2]), 32 nM.
Consider `Cc1cc(C2(C)NC(=O)N(CCCC(=O)O)C=C2C(C)C)ccc1CCC(C)(C)C` (racemic), for which the EC50 on mouse RORγ (GAL4-mRORγ LBD / pG5-Luc in CHO cells, 2 days incubation) was found to be 21 nM; at human RORγ (GAL4-hRORγ LBD / pG5-Luc in CHO cells, 2 days incubation), 28 nM.
For `CC(C)C1=CN(CCC(=O)O)C(=O)N[C@@]1(C)c1ccc(CC2CCCC2)c(Cl)c1` [Example 263], the EC50 worked out at 33 nM at mouse RORγ (setting [1]) and 45 nM at human RORγ (setting [2]).

As usually defined, the EC50 is the concentration giving half of the maximal effect.
